Assay results published in ChEMBL document CHEMBL4311974, “Synthesis of coumarin-sulfonamide derivatives and determination of their cytotoxicity, carbonic anhydrase inhibitory and molecular docking studies” (Eur J Med Chem, 2019).

Target: Carbonic anhydrase 2 (Homo sapiens, UniProt P00918)

O=Cc1ccccc1OCc1cn(CCCOc2ccc3ccc(=O)oc3c2)nn1
Ki: > 10 µM
